The text below walks through data of patent US9789082B2, “Somatostatin receptor subtype 4 (SSTR4) agonists” (Centrexion Therapeutics Corporation, priority 2013, dated 2017).

Protein sequences, listed by entry. Tags and fused reporters are not part of them.
UniProt P31391, whole entry: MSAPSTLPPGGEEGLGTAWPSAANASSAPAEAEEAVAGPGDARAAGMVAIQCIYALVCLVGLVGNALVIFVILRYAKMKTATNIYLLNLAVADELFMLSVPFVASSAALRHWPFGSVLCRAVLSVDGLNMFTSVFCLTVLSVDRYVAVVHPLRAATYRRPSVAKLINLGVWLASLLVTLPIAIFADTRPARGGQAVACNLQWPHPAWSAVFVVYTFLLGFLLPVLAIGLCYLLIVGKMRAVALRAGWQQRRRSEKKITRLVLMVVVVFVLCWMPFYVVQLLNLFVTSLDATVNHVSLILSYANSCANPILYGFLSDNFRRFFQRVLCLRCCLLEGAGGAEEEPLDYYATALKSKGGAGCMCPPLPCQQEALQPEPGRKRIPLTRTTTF

The target of data set [1] is human Somatostatin 4 receptor (SSTR4) (Homo sapiens (Human), UniProt P31391). The data set can be described thus: cAMP assay with human somatostatin 4 receptor (hSSTR4 expressing H4 cells). The following applies: read-out: SSTR4 agonism EC50, tested form: HCl. The format is cell-based. (In general: Cyclic AMP is a second messenger, typically raised through Gs and lowered through Gi signalling.)

Data set [2] can be described thus: Metabolic stability in pooled human liver microsomes (half-life). The following applies: 37° C., 1 μM test compound. In general terms: Liver microsomes are a subcellular fraction often used to study metabolism.

As a reminder, the EC50 is the concentration that produces a half-maximal response. In the case of `Cc1cc2nc(C)ccc2c(C(C)(C)NC(=O)[C@H]2[C@@H]3CNC[C@@H]32)n1`, the EC50 in data set [1] worked out at 34.7 nM.
For `Cc1cccn2c(C(C)(C)NC(=O)[C@H]3[C@@H]4CNC[C@@H]43)nc(C)c12`, the “Half-life t1/2” value in data set [2] was more than 130 min.
